Measured values reported in patent US20210130473A1, “TGFßR1 INHIBITOR-ASGR ANTIBODY CONJUGATES AND USES THEREOF” (Silverback Therapeutics, Inc., priority 2019, published 2021).

By UniProt entry, the sequences of proteins in these tests, tags left out. Residues count along the entry.
UniProt P36897, 34-503 limits assumed: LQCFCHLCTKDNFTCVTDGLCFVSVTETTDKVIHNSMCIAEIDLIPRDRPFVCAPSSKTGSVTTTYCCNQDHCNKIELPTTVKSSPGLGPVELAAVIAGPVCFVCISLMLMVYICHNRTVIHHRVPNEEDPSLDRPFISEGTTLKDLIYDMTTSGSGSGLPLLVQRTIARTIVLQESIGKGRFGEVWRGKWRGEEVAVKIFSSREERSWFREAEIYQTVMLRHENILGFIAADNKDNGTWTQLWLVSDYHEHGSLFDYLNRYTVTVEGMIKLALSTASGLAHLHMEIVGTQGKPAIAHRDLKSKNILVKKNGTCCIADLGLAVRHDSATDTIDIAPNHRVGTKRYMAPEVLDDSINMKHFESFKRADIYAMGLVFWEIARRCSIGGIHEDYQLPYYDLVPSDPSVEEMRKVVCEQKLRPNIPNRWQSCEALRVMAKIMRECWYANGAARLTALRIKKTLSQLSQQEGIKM

Tests used:
[1] = target: ALK5 (Homo sapiens, UniProt P36897); assay: ALK5 enzyme inhibition assay (casein substrate, 10 uM ATP, 33P-ATP, filter-binding; Reaction Biology Corp); conditions: Table 12
[2] = tested on: TGFβ/SMAD Signaling Pathway SBE reporter cell line; assay: TGFb reporter assay in HEK293 SBE-LUC reporter cells (luciferase); conditions: key of the table says IC50

- IC50 [1]: 100 to 1000 nM
- IC50 [2]: 100 to 1000 nM
Compound: CC(=O)NC1Cc2ccc(NCc3nc(-c4cccc(C)n4)c(-c4ccc5ncnn5c4)[nH]3)cc2C1 (centres unmarked)
